Literature values in paper PMC140124 (Biological Procedures Online, 1998).

Settings: presence of peptidase inhibitors; ref [1]

## Tyr-Gly-Gly-Phe-Leu
  change of elimination clearance from the mucosal side: decreased
